Measured values published in publication PMC4357715, “The beta hairpin structure within ribosomal protein S5 mediates interplay between domains II and IV and regulates HCV IRES function” (Nucleic Acids Research, 2015).
Entries after “also recorded” stand apart in the source; their conditions may differ.

Assays:
[1] = tested on: HCV IRES; test: Filter binding assay of peptides with 32P-labelled HCV IRES; parameters: species or system Hepatitis C Virus; details: 30°C; for interaction with the HCV IRES: % RNA retained, 25 fmol 32P-labelled HCV IRES, increasing peptide concentration, three independent experiments
Procedure: (§1) Filter binding assay was performed as described earlier ([17]). The α-^32P-labelled HCV 18–383 RNA was incubated with increasing concentrations of peptides at 30°C for 15 min in RNA binding buffer (5 mM 4-(2-hydroxyethyl)-1-piperazineethanesulfonic acid (HEPES), pH 7.6, 25 mMKCl, 2 mM MgCl2, 3.8% glycerol, 2 mM dithiothreitol and 0.1 mM ethylenediaminetetraacetic acid (EDTA)), and loaded onto nitrocellulose filters. The filters were then washed twice with 1 ml of ice-cold 1× binding buffer and once with absolute ethanol dried. The counts retained on the membranes were measured with a liquid scintillation counter. Kd values were calculated using nonlinear regression applied by GraphPad Prism 6. Each experiment was repeated three times.
Figure 1. Characterization of the region of RPS5 involved in HCV IRES–RPS5 interaction. (A) Model depicting the interaction of RPS5 with the domains of IRES. The amino acid residues of RPS5 involved in the interaction are indicated in yellow, the RPS5 protein in blue, the domain II in red and the SLIV in brown. (B) Model depicting interaction of RPS5 with the domains of IRES with the nucleotides involved in interaction indicated in yellow. (C) Schematic representation of peptides derived from RNA binding region of RPS5. (D) Filter binding analysis of the interaction between HCV IRES and peptides derived from RNA binding region of RPS5 protein (S5M1 and S5C2) and a non-specific peptide (NSPS5). The indicated peptides were incubated with 25fmol of ^32P body labelled HCV IRES at 30°C before applying it on nitrocellulose membrane. Percentage of RNA retained on the nitrocellulose membrane was plotted against peptide concentration. Average of three independent experiments was used to plot the graph. Apparent Kd values were calculated using nonlinear regression applied by Graphpad Prism 6. […]
(§2) Next, we aimed to validate the results obtained by computational modelling through other experimental approaches. […] The dissociation constant Kd was determined using GraphPad Prism 6 software. […]

[2] = tested on: HCV IRES and RPS5; test: Competition UV cross-linking of HCV IRES and rRPS5 in presence of S5 derived peptides; assay type: binding; details: 100 fmol 32P-labelled HCV IRES, 4 pmol rRPS5; 100- and 200-fold molar excess of peptide
Procedure: UV cross-linking assay was performed as reported earlier ([17]). In UV cross linking assay α-^32P-labelled HCV IRES RNA (18–383) or HCV 3′ UTR was allowed to form complex with the purified recombinant ribosomal protein S5 (rRPS5) or purified 40S ribosome subunit in binding buffer (5 mM HEPES pH 7.6, 25 mM KCl, 2 mM MgCl2, 3.8% glycerol, 2 mM dithiothreitol, 0.1 mM EDTA) at 30°C for 15 min. These RNA–protein complexes were then irradiated with UV light (254 nm) for 25 min on ice. The excess RNA was digested with RNase A (Sigma) for 30 min at 37°C and UV cross-linked complex was resolved on SDS-polyacrylamide gel, which was dried before it was exposed to the phosphor-Imager cassette. In case of competition UV cross-linking experiments, RNA–protein complex formation was performed in presence of the un-labelled RNAs or peptides.
(§3) Figure 1. Characterization of the region of RPS5 involved in HCV IRES–RPS5 interaction. (A) Model depicting the interaction of RPS5 with the domains of IRES. […] Apparent Kd values were calculated using nonlinear regression applied by Graphpad Prism 6. […]
as §2

[3] = tested on: non-specific RNA (NSP RNA); test: Filter binding assay of S5M1 with non-specific RNA; details: average of three independent experiments
Procedure: as §1
as §3, with “IRES. The amino acid residues of RPS5 involved in the interaction are indicated in yellow, the RPS5 protein in blue, the domain II in red and the SLIV in brown.” for “IRES.”
as §2

| Substance | interaction with the HCV IRES [1] | competition with rRPS5 for binding with HCV IRES [2] | Kd ([1]; nitrocellulose, 25 fmol 32P-labelled HCV 18–383 RNA, 15 min, RNA binding buffer 5 mM HEPES pH 7.6, 25 mM KCl, nonlinear regression GraphPad Prism 6, average of three independent experiments, read-out: apparent dissociation constant Kd) | interaction with non-specific RNA (NSP RNA) [3] |
| --- | --- | --- | --- | --- |
| S5C2: synthetic 26aa peptide (N179-R204) derived from the C-terminal end of RPS5 | did not show any appreciable interaction with the HCV IRES; also recorded: did not show significant interaction with IRES | could not interfere with IRES-RPS5 |  |  |
| S5M1: synthetic 26aa peptide (P121-R146) from RPS5; amino acids forming a beta hairpin structure | specific interaction with the HCV IRES; also recorded: interacted specifically with HCV IRES | competed with full-length rRPS5 for binding with the HCV IRES | 5.6 ± 0.67 µM | not with a non-specific RNA (NSP RNA) |
